Earlier results as cited in patent US9901577B2, “Oxoquinazolinyl-butanamide derivatives” (MERCK PATENT GMBH, priority 2013, dated 2018).

Target: T1, TNKS2 (Homo sapiens, UniProt Q9H2K2)
T1 sequence (Q9H2K2 1-1166): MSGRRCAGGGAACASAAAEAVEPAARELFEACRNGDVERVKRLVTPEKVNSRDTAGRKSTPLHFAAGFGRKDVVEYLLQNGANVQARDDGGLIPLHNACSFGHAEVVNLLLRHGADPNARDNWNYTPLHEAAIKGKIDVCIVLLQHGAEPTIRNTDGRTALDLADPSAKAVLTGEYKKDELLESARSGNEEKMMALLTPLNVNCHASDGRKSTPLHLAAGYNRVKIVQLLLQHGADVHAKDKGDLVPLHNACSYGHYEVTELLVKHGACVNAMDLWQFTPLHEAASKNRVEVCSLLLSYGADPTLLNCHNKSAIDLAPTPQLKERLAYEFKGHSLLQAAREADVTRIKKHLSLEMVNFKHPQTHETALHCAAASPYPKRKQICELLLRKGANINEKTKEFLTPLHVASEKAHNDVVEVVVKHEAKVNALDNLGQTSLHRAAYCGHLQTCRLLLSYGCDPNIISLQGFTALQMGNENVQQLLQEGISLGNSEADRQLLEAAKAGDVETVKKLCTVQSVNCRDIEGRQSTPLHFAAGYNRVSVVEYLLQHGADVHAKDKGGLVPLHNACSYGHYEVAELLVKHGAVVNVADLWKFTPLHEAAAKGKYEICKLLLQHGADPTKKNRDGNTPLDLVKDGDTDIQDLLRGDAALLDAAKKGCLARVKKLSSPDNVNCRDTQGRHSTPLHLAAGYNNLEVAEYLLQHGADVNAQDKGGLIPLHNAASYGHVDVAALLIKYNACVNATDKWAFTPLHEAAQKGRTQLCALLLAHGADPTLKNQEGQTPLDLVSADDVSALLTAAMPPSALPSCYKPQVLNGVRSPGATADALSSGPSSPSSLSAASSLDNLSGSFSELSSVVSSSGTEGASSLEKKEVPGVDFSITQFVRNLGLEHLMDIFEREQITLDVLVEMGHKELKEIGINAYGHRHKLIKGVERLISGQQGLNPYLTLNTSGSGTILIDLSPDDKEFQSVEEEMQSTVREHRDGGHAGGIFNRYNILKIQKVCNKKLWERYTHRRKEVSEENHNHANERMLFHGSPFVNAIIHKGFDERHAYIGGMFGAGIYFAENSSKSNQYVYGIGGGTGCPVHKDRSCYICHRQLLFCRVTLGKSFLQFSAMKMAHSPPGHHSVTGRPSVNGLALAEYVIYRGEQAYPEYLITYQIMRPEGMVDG
Conditions: literature data; cited from earlier work

O=c1[nH]c(-c2ccc(C(F)(F)F)cc2)nc2ccccc12
IC50: 22 nM
